{
  "sequences": {"note": "Sequences of proteins named here, by UniProt entry; tags and fusion partners are left off.", "UniProt P19327, whole entry": "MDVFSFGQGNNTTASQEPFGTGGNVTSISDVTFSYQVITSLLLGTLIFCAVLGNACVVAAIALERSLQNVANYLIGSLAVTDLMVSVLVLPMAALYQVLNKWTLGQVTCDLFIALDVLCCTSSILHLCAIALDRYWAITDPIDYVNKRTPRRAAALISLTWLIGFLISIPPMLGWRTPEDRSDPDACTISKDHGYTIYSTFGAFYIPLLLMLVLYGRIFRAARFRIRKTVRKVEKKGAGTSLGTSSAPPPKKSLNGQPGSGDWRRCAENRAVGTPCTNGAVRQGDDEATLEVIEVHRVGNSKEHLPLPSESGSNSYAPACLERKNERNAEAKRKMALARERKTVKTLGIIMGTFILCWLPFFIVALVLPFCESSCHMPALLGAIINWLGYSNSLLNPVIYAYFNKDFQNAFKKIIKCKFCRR"},
  "source": "patent US8921563B2",
  "about": "“1-[(4-hydroxypiperidin-4-yl)methyl]pyridin-2(1H)-one derivatives, preparation methods and uses thereof” (Institue of Pharmacology and Toxicology Academy of Military …, priority 2010, dated 2014)",
  "molecular_target": "T1, 5-HT1A receptor (Rattus norvegicus, UniProt P19327)",
  "T1 construct": "the content of 5-HT1A receptor extracted from rat hippocampi was 5.5 mg/ml; from tissue; host or cells: Wistar rat hippocampus, membrane preparation",
  "assay": "Screening: competitive binding test to 5-HT1A receptor using [3H]-8-OH-DPAT, rat hippocampi membrane protein",
  "details": "[3H]-8-OH-DPAT 1.28 nM",
  "experimental": "1.4.1 Screening of YL Series Compounds\n(1) Preparation of Membrane Proteins in Rat Hippocampi\nWister rats, 220-260 g, female and male, were sacrificed by decapitation and hippocampis were rapidly separated, weighed and to which homogenized in 10 times volume of Tris-HCl buffer solution (50 mM Tris-HCl, 5 mM MgCl2,1 mM EDTA, 0.5% (WN) BSA, 1 mM PMSF, 3 μg/ml proteinase inhibitor, 0.1% NaN3, 0.32M sucrose, pH 7.4) at 15,000 rpm for 30 s, total 5 times. The homogenate was centrifuged under 1000×g for 10 minutes and the supernatant was then centrifuged under 39000×g for 10 minutes. The precipitate was collected, and resuspended with 10 times volume of Tris-HCl buffer solution (pH 7.4) relative to the original weight, then centrifuged under 39000×g for 10 minutes. The precipitate was washed with the same buffer solution, centrifuged under 39000×g for 10 minutes and the precipitate was suspended with the above buffer solution. […] The protein concentration was measured by Lowrry method. […]\n8) Then samples were applied to 49-type glass fibre filter, vacuum suction filtered, then washed three times with 2 ml ice-cold Tris-HCl buffer solution (50 mM Tris-HCl buffer solution, 1 mM EDTA, 5 mM MgCl2, 1 mM PMSF, 0.1% NaN3, 3 μg/ml proteinase inhibitor, pH 7.4). […] The radio-activity was measured by a scintillation counter.",
  "data": [
    {"smiles": "CCCN(CCC)C1CCc2cccc(O)c2C1", "note": "(centres unmarked) [Compound 8-OH-DPAT, 8-OH-DPAT, reference compound]", "values": [
      {"measurement": "Inhibition percent (I %), competitive binding to 5-HT1A receptor", "setting": "compound 10^-5 mol/L", "value": 100, "unit": "%"},
      {"measurement": "Inhibition percent (I %), competitive binding to 5-HT1A receptor", "setting": "compound 10^-7 mol/L", "value": 85, "unit": "%"}
    ]}
  ]
}
